{
  "source": "paper PMC3102090",
  "about": "“Interaction between Amyloid Beta Peptide and an Aggregation Blocker Peptide Mimicking Islet Amyloid Polypeptide” (PLoS ONE, 2011)",
  "origin": "cited, not measured here",
  "key": {"[1]": {"test_system": "IAPP", "settings": "ref [13], [17]; cited from earlier work", "from_the_text": "(§1) One approach to inhibit an aggregation reaction is to re-design the self-recognition interface of peptide or protein molecules, in a manner that the modified molecule is still capable of interacting with the native form, but inhibits its further assembly into larger aggregates. This approach was successfully exploited for example in the case of Islet Amyloid Polypeptide (IAPP), [14]. IAPP is a hydrophobic strongly amyloidogenic peptide, which is produced in the pancreatic islet cells and plays, in the soluble monomeric form, a major role in glucose homeostasis. In certai ..."}, "[2]": {"test_system": "insulin", "settings": "ref [18], [19]; cited from earlier work", "from_the_text": "as §1"}, "[3]": {"test_system": "Aβ", "settings": "ref [18], cited from earlier work", "from_the_text": "as §1, with “homeostasis. […]” for “homeostasis.”, “agreement with their intrinsic aggregation propensities, the agg” for “certai”"}},
  "data": [
    {"smiles": "CC[C@H](C)[C@@H](C(=O)N[C@@H](CC(C)C)C(=O)N[C@@H](CO)C(=O)N[C@@H](CO)C(=O)N[C@H](C(=O)N[C@@H](CC(N)=O)C(=O)N[C@H](C(=O)NCC(=O)N[C@@H](CO)C(=O)N[C@@H](CC(N)=O)C(=O)N[C@H](C(=O)N[C@@H](Cc1ccc(O)cc1)C(N)=O)[C@@H](C)O)C(C)C)[C@@H](C)O)N(C)C(=O)[C@H](C)NC(=O)CN(C)C(=O)[C@H](Cc1ccccc1)NC(=O)[C@H](CC(N)=O)NC(=O)[C@H](CC(N)=O)NC(=O)[C@H](CO)NC(=O)[C@H](CO)NC(=O)[C@H](Cc1c[nH]cn1)NC(=O)[C@@H](NC(=O)[C@H](CC(C)C)NC(=O)[C@H](Cc1ccccc1)NC(=O)[C@H](CC(N)=O)NC(=O)[C@H](C)NC(=O)[C@H](CC(C)C)NC(=O)[C@H](CCCNC(=N)N)NC(=O)[C@H](CCC(N)=O)NC(=O)[C@@H](NC(=O)[C@H](C)NC(=O)[C@@H]1CSSC[C@H](NC(=O)[C@@H](N)CCCCN)C(=O)N[C@@H](CC(N)=O)C(=O)N[C@@H]([C@@H](C)O)C(=O)N[C@@H](C)C(=O)N[C@@H]([C@@H](C)O)C(=O)N1)[C@@H](C)O)C(C)C", "note": "[IAPP-GI]", "values": [
      {"measurement": "inhibition of IAPP amyloid formation and cytotoxicity", "setting": "[1]", "value": "efficiently inhibits IAPP amyloid formation and cytotoxicity"},
      {"measurement": "effect on cytotoxic assembly of insulin", "setting": "[2]", "value": "block cytotoxic assembly of Aβ and insulin as well"},
      {"measurement": "effect on Aβ40 and Aβ42 fibrillogenesis and cytotoxicity", "setting": "[3]; low micromolar concentrations of Aβ and IAPP-GI, [38]", "value": "strong inhibitory effect"},
      {"measurement": "effect on cytotoxic assembly of Aβ", "setting": "[3]; [19]", "value": "block cytotoxic assembly of Aβ"}
    ]}
  ]
}
